The assay deals with T1, human neutrophil elastase (human, UniProt P08246 30-247, limits assumed).
T1 sequence (looked up): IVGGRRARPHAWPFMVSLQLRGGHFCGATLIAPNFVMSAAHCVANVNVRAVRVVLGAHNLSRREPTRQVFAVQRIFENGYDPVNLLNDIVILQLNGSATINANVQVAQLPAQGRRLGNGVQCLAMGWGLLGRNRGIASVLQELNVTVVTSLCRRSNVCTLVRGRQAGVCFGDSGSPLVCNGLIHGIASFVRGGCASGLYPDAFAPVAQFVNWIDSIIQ
Nature of the assay: human neutrophil elastase inhibition assay, 40 nM each, chromogenic substrate; Ka calculated.

These results are taken from US20120094356A1 (ALTEOGEN, published 2012).

B1: human growth hormone/alpha-1 antitrypsin monovariant fusion [T109: α1AT(P357N)/hGH] (other)
chain: EDPQGDAAQKTDTSHHDQDHPTFNKITPNLAEFAFSLYRQLAHQSNSTNIFFSPVSIATAFAMLSLGTKADTHDEILEGLNFNLTEIPEAQIHEGFQELLRTLNQPDSQLQLTTGNGLFLSEGLKLVDKFLEDVKKLYHSEAFTVNFGDTEEAKKQINDYVEKGTQGKIVDLVKELDRDTVFALVNYIFFKGKWERPFEVKDTEEEDFHVDQVTTVKVPMMKRLGMFNIQHCKKLSSWVLLMKYLGNATAIFFLPDEGKLQHLENELTHDIITKFLENEDRRSASLHLPKLSITGTYDLKSVLGQLGITKVFSNGADLSGVTEEAPLKLSKAVHKAVLTIDEKGTEAAGAMFLEAINMSIPPEVKFNKPFVFLMIDQNTKSPLFMGKVVNPTQKGGGGS[sequence of about 200 residues omitted]
modifications: new N-glycosylation site Asn-X-Ser at position 357 of alpha-1 antitrypsin
With B1, the Ka is about 1.4e+07 M⁻¹.
